Reference: patent US20250353898A1, “SERPIN PEPTIDE DERIVATIVES AND METHODS OF USING THE SAME” (priority 2022, published 2025)

Key:
NFκB = NFκB reporter assay (SEAP) in THP1-XBlue-MD2-CD14 cells after LPS; type: cell-based; conditions: LPS 5 ng/ml
Procedure: The NFκB inducible Secreted Embryonic Alkaline Phosphatase (SEAP) was measured in the supernatant and read for absorbance.
(§1) Various SERPIN peptide derivatives were screened in vitro for their ability to reduce TNFα and NFκB secretion via LRP-1 activation. The NFκB reporter cells (THP1-XBlue-MD2-CD14 cells) were treated with each peptide derivative at various concentrations, up to 100 μg/ml before being insulted with LPS (5 ng/ml) and incubated overnight. The NFκB inducible Secreted Embryonic Alkaline Phosphatase (SEAP) was measured in the supernatant and read for absorbance. IMG Microglial cells were treated with each peptide derivative at various concentrations, up to 100 μg/ml before LPS (100 ng/ml) stimulation for 24 hours. An ELISA was used to measure TNFα in the supernatant ([…]).

TNFα = TNFα secretion in IMG microglial cells after LPS (ELISA); type: cell-based; conditions: LPS 100 ng/ml, 24 hours
Procedure: In the NFκB reporter cells, the NFκB inducible Secreted Embryonic Alkaline Phosphatase (SEAP) was measured in the supernatant. TNFα secretion in the supernatant was measured via ELISA.
as §1

IL-6 = IL-6 secretion in IMG microglial cells after LPS (ELISA); type: cell-based; conditions: LPS 100 ng/ml, 24 hours
[1] = test system: LPS induced neuroinflammation; assay: LPS induced neuroinflammatory model; type: in vivo, C57BL/6 mice
LC3II/I ratio = assay: Autophagy marker LC3II/I ratio in IMG microglial cells (western blot); type: cell-based; conditions: 100 μg/ml before LPS 100 ng/ml, 24 hours
LRP1 [2] = assay: LRP1 protein expression in IMG microglial cells (western blot); type: cell-based; conditions: 100 μg/ml, LPS activated microglial cells
LRP1 [3] = assay: OVA mouse model of Eosinophilic Esophagitis, LRP1 in esophageal lysate (western blot); type: in vivo; conditions: OVA sensitized and challenged mice
TSLP = assay: polyI:C-induced TSLP production by SPINK7 knockout EPC2 cells (ELISA); type: cell-based, Human; conditions: 200 μg/ml, Poly I:C 5 μg/ml, 8 hours, SPINK7 KO EPC2 cells
[4] = test system: OVA induced allergic asthma; assay: OVA induced allergic asthma mouse model, lung homogenate; type: in vivo, mice; conditions: compared to vehicle treated animals, p<0.005
From the text: Infiltration of immune cells into the lung likely account for the increase in total protein levels in the lung.

## CCCC[C@H](NC(=O)[C@H](CC(C)C)NC(=O)[C@H](Cc1ccccc1)NC(=O)[C@@H](NC(=O)[C@H](Cc1ccccc1)NC(=O)[C@@H]1CCCN1C(=O)[C@H](CCCCN)NC(=O)[C@H](CC(N)=O)NC(=O)[C@H](Cc1ccccc1)NC(=O)[C@H](CCCCN)NC(=O)[C@@H](NC(C)=O)C(C)C)C(C)C)C(=O)N[C@H](C(=O)N[C@@H](CCC(=O)O)C(=O)N[C@@H](CCC(N)=O)C(=O)N[C@@H](CC(N)=O)C(=O)N[C@H](C(=O)N[C@@H](CCCCN)C(N)=O)[C@@H](C)O)[C@@H](C)CC [SP163M, Ac-VKFNKPFVFL[Nle]IEQNTK-NH2]
NFκB
  EC50 NFκB: 41.51 µg/mL (≈ 19.7 µM)
TNFα
  EC50 TNFα: 125.9 µg/mL (≈ 59.8 µM)
IL-6
  EC50 IL-6: 134.5 µg/mL (≈ 63.8 µM)
[1]; 100 μg s.c. daily, Day 5, LEGENDplex panel
  IL-6 level in brain homogenate: moderate levels
[1]; 100 μg subcutaneously daily 1 hour after LPS 1 mg/kg i.p., 4 days
  weight loss: not seen
LC3II/I ratio
  autophagic flux (LC3II/I ratio): restored autophagic functioning to near baseline levels
LRP1 [2]
  LRP1 protein expression: increased LRP1 protein expression
LRP1 [3]
  LRP1 protein expression in esophageal lysate: increased levels of LRP1
TSLP
  TSLP production in supernatant: inhibited polyI:C-induced TSLP production
[4]
  total protein levels in the lung: significantly decreased

≈ marks a conversion by molar mass, not a printed value.
